Measured values as given in patent publication US6350596B2, “Method for producing L-phenylalanine” (Ajinomoto Co., Inc., priority 2000, dated 2002).

Tested on: Methylophilus methylotrophus pFp^R phe^R mutant strain No. 227-16
Assay type: cell-based
Excerpt: The new mutants which were resistant to 1 g/L of meta-fluorophenylalanine (hereinafter abbreviated to mFp^R) were isolated from the strain No. 227-16 after NG-mutagenesis as it was described above.

N[C@@H](Cc1cccc(F)c1)C(=O)O [m-fluorophenylalanine]
concentration to which the strain was resistant: 0.5 g/L
